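Where inhibition never reached the appropriate level, the endpoint shown equals the highest concentration tested. Otherwise, values were interpolated linearly from a five-concentration, 48-hour dose response in 96-well plates. GI50: concentration for 50% inhibition of growth. TGI: total growth inhibition.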
How the values were obtained:
Experiment in all cases: growth of human tumour cells (NCI), 48 h
TK-10 renal = tested on: TK-10 renal
IGROV1 ovarian = tested on: IGROV1 ovarian
HCC-2998 colon = tested on: HCC-2998 colon
T-47D breast = tested on: T-47D breast
SNB-75 CNS = tested on: SNB-75 CNS
SF-268 CNS = tested on: SF-268 CNS
HL-60(TB) leukemia = tested on: HL-60(TB) leukemia
SK-MEL-28 melanoma = tested on: SK-MEL-28 melanoma
HS 578T breast = tested on: HS 578T breast
M14 melanoma = tested on: M14 melanoma
HT29 colon = tested on: HT29 colon
NCI-H322M lung = tested on: NCI-H322M lung
MDA-MB-231 breast = tested on: MDA-MB-231 breast
OVCAR-4 ovarian = tested on: OVCAR-4 ovarian
NCI-H23 lung = tested on: NCI-H23 lung
UACC-62 melanoma = tested on: UACC-62 melanoma
SK-MEL-5 melanoma = tested on: SK-MEL-5 melanoma
ACHN renal = tested on: ACHN renal
HOP-62 NSCLC = tested on: HOP-62 NSCLC
MDA-N = tested on: MDA-N
SW-620 colon = tested on: SW-620 colon
HCT-116 colon = tested on: HCT-116 colon
MDA-MB-435 = tested on: MDA-MB-435
SNB-19 CNS = tested on: SNB-19 CNS
LOX IMVI melanoma = tested on: LOX IMVI melanoma
PC-3 prostate = tested on: PC-3 prostate
NCI-H460 lung = tested on: NCI-H460 lung
MCF7 breast = tested on: MCF7 breast
A549 NSCLC = tested on: A549 NSCLC
DU-145 prostate = tested on: DU-145 prostate
RXF 393 renal = tested on: RXF 393 renal
HOP-92 NSCLC = tested on: HOP-92 NSCLC
U251 CNS = tested on: U251 CNS
RPMI-8226 leukemia = tested on: RPMI-8226 leukemia
KM12 colon = tested on: KM12 colon
MALME-3M melanoma = tested on: MALME-3M melanoma
SK-MEL-2 melanoma = tested on: SK-MEL-2 melanoma
UO-31 renal = tested on: UO-31 renal
OVCAR-8 ovarian = tested on: OVCAR-8 ovarian
A498 renal = tested on: A498 renal
NCI-H226 lung = tested on: NCI-H226 lung
786-0 renal = tested on: 786-0 renal
CAKI-1 renal = tested on: CAKI-1 renal
NCI-H522 lung = tested on: NCI-H522 lung
MOLT-4 leukemia = tested on: MOLT-4 leukemia
COLO 205 colon = tested on: COLO 205 colon
SR leukemia = tested on: SR leukemia
EKVX NSCLC = tested on: EKVX NSCLC
NCI/ADR-RES ovarian = tested on: NCI/ADR-RES ovarian
SN12C renal = tested on: SN12C renal
BT-549 breast = tested on: BT-549 breast
HCT-15 colon = tested on: HCT-15 colon
CCRF-CEM leukemia = tested on: CCRF-CEM leukemia
K-562 leukemia = tested on: K-562 leukemia
OVCAR-5 ovarian = tested on: OVCAR-5 ovarian
UACC-257 melanoma = tested on: UACC-257 melanoma

O=C1CCN2CCCC12.O=[N+]([O-])c1cc([N+](=O)[O-])c(O)c([N+](=O)[O-])c1
GI50 (TK-10 renal): > 100 µM
TGI (TK-10 renal): > 100 µM
GI50 (IGROV1 ovarian): > 100 µM
TGI (IGROV1 ovarian): > 100 µM
GI50 (HCC-2998 colon): > 100 µM
TGI (HCC-2998 colon): > 100 µM
GI50 (T-47D breast): > 100 µM
TGI (T-47D breast): > 100 µM
GI50 (SNB-75 CNS): > 100 µM
TGI (SNB-75 CNS): > 100 µM
GI50 (SF-268 CNS): > 100 µM
TGI (SF-268 CNS): > 100 µM
GI50 (HL-60(TB) leukemia): > 100 µM
TGI (HL-60(TB) leukemia): > 100 µM
GI50 (SK-MEL-28 melanoma): > 100 µM
TGI (SK-MEL-28 melanoma): > 100 µM
GI50 (HS 578T breast): > 100 µM
TGI (HS 578T breast): > 100 µM
GI50 (M14 melanoma): 68.7 µM
TGI (M14 melanoma): > 100 µM
GI50 (HT29 colon): > 100 µM
TGI (HT29 colon): > 100 µM
GI50 (NCI-H322M lung): > 100 µM
TGI (NCI-H322M lung): > 100 µM
GI50 (MDA-MB-231 breast): > 100 µM
TGI (MDA-MB-231 breast): > 100 µM
GI50 (OVCAR-4 ovarian): > 100 µM
TGI (OVCAR-4 ovarian): > 100 µM
GI50 (NCI-H23 lung): > 100 µM
TGI (NCI-H23 lung): > 100 µM
GI50 (UACC-62 melanoma): > 100 µM
TGI (UACC-62 melanoma): > 100 µM
GI50 (SK-MEL-5 melanoma): > 100 µM
TGI (SK-MEL-5 melanoma): > 100 µM
GI50 (ACHN renal): > 100 µM
TGI (ACHN renal): > 100 µM
GI50 (HOP-62 NSCLC): > 100 µM
TGI (HOP-62 NSCLC): > 100 µM
GI50 (MDA-N): 62.3 µM
TGI (MDA-N): > 100 µM
GI50 (SW-620 colon): > 100 µM
TGI (SW-620 colon): > 100 µM
GI50 (HCT-116 colon): > 100 µM
TGI (HCT-116 colon): > 100 µM
GI50 (MDA-MB-435): 40.6 µM
TGI (MDA-MB-435): > 100 µM
GI50 (SNB-19 CNS): > 100 µM
TGI (SNB-19 CNS): > 100 µM
GI50 (LOX IMVI melanoma): 97.2 µM
TGI (LOX IMVI melanoma): > 100 µM
GI50 (PC-3 prostate): > 100 µM
TGI (PC-3 prostate): > 100 µM
GI50 (NCI-H460 lung): > 100 µM
TGI (NCI-H460 lung): > 100 µM
GI50 (MCF7 breast): > 100 µM
TGI (MCF7 breast): > 100 µM
GI50 (A549 NSCLC): > 100 µM
TGI (A549 NSCLC): > 100 µM
GI50 (DU-145 prostate): > 100 µM
TGI (DU-145 prostate): > 100 µM
GI50 (RXF 393 renal): > 100 µM
TGI (RXF 393 renal): > 100 µM
GI50 (HOP-92 NSCLC): 37.3 µM
TGI (HOP-92 NSCLC): > 100 µM
GI50 (U251 CNS): > 100 µM
TGI (U251 CNS): > 100 µM
GI50 (RPMI-8226 leukemia): > 100 µM
TGI (RPMI-8226 leukemia): > 100 µM
GI50 (KM12 colon): > 100 µM
TGI (KM12 colon): > 100 µM
GI50 (MALME-3M melanoma): 85.4 µM
TGI (MALME-3M melanoma): > 100 µM
GI50 (SK-MEL-2 melanoma): > 100 µM
TGI (SK-MEL-2 melanoma): > 100 µM
GI50 (UO-31 renal): 43.1 µM
TGI (UO-31 renal): > 100 µM
GI50 (OVCAR-8 ovarian): > 100 µM
TGI (OVCAR-8 ovarian): > 100 µM
GI50 (A498 renal): > 100 µM
TGI (A498 renal): > 100 µM
GI50 (NCI-H226 lung): > 100 µM
TGI (NCI-H226 lung): > 100 µM
GI50 (786-0 renal): > 100 µM
TGI (786-0 renal): > 100 µM
GI50 (CAKI-1 renal): > 100 µM
TGI (CAKI-1 renal): > 100 µM
GI50 (NCI-H522 lung): 64.3 µM
TGI (NCI-H522 lung): > 100 µM
GI50 (MOLT-4 leukemia): > 100 µM
TGI (MOLT-4 leukemia): > 100 µM
GI50 (COLO 205 colon): > 100 µM
TGI (COLO 205 colon): > 100 µM
GI50 (SR leukemia): > 100 µM
TGI (SR leukemia): > 100 µM
GI50 (EKVX NSCLC): > 100 µM
TGI (EKVX NSCLC): > 100 µM
GI50 (NCI/ADR-RES ovarian): > 100 µM
TGI (NCI/ADR-RES ovarian): > 100 µM
GI50 (SN12C renal): > 100 µM
TGI (SN12C renal): > 100 µM
GI50 (BT-549 breast): > 100 µM
TGI (BT-549 breast): > 100 µM
GI50 (HCT-15 colon): > 100 µM
TGI (HCT-15 colon): > 100 µM
GI50 (CCRF-CEM leukemia): > 100 µM
TGI (CCRF-CEM leukemia): > 100 µM
GI50 (K-562 leukemia): 69.4 µM
TGI (K-562 leukemia): > 100 µM
GI50 (OVCAR-5 ovarian): > 100 µM
TGI (OVCAR-5 ovarian): > 100 µM
GI50 (UACC-257 melanoma): 80 µM
TGI (UACC-257 melanoma): > 100 µM

Source: PubChem BioAssay (NCI)
